The source of these data is PMC8640019 (Nature Communications, 2021).

Values joined by “and” are separate entries in the source; they are usually repeats but may differ in a detail not shown here. Identical values can stand only once.

Experiment in all cases: ITC; 298 K, Microcal ITC200; 25 mM Hepes pH 7.5, 150 mM NaCl, 2 mM TCEP; typically 12 x 3.25 µL of 240 µM peptide (syringe) into 30 µM SOCS-EloB/C (cell); where a second peptide or Cullin5 NTD stands in the cell the protein was with it beforehand (25 µM SOCS2-EloB/C pre-incubated with 60 µM F3); single-site fit
What all share (conditions): both partners purified
(Isothermal titration calorimetry measures the heat released or taken up as one component is titrated into another.)

The target in assay [1] is T1, SOCS2-Elo B/C + F3 (human, UniProt O14508 32-198; Q15370 1-118; Q15369 17-112).
T1 construct: human Elongin C, residues 17-112; F3 peptide; ITC: 25 µM SOCS2-EloB/C pre-incubated with 60 µM F3; SPR: 100 nM SOCS2 with 10 µM F3; also called SOCS2 + F3; SOCS2/F3 complex; not shown: GST, N-terminal, cleaved; copies: + + +

In assay [2] the target is T2, SOCS2^32-198-EloB/C (human, UniProt O14508 32-198; Q15370 1-118; Q15369 17-112).
T2 construct: human Elongin C, residues 17-112; also called SOCS2-Elo B/C; SOCS2/BC; source: E. coli BL21 (R3), co-expressed with Elongin BC, purified (Glutathione Sepharose, TEV cleavage, SEC); not shown: GST, N-terminal, cleaved; copies: + +

For assay [3], the target named is T2, SOCS2^32-198-EloB/C. The source holds these as a separate data set.
For assay [4], the target named is T1, SOCS2-Elo B/C + F3. This is another data set of the same source.
The target of assay [5] is T2, SOCS2^32-198-EloB/C. This is another data set of the same source.

Consider STASTVQYSTVVHSG (phosphotyrosine at 757) [gp130 pY757 peptide], for which the Kd (commonly the concentration at which binding is half-saturated) is 0.51 µM in the assay with SOCS2-Elo B/C + F3 [1]; 5.8 µM in the assay with SOCS2^32-198-EloB/C [2]; 5.68 µM and 5.92 µM in the assay with SOCS2^32-198-EloB/C [3]; 0.56 µM and 0.45 µM with SOCS2-Elo B/C + F3 [4]. In addition, the Ka is 176000 M⁻¹ and 169000 M⁻¹ in the assay with SOCS2^32-198-EloB/C [3]; 2.2e+06 M⁻¹ and 1.8e+06 M⁻¹ with SOCS2-Elo B/C + F3 [4]. Besides, in the assay with SOCS2^32-198-EloB/C [3], the stoichiometry N (as a rule, the number of molecules, sites or subunits per partner or assembly) is 0.45 and 0.263.

B1: Cullin5 N-terminal domain (Cul5^1-384) (domain or fragment)
chain: MATSNLLKNKGSLQFEDKWDFMRPIVLKLLRQESVTKQQWFDLFSDVHAVCLWDDKGPAKIHQALKEDILEFIKQAQARVLSHQDDTALLKAYIVEWRKFFTQCDILPKPFCQLEITLMGKQGSNKKSNVEDSIVRKLMLDTWNESIFSNIKNRLQDSAMKLVHAERLGEAFDSQLVIGVRESYVNLCSNPEDKLQIYRDNFEKAYLDSTERFYRTQAPSYLQQNGVQNYMKYADAKLKEEEKRALRYLETRRECNSVEALMECCVNALVTSFKETILAECQGMIKRNETEKLHLMFSLMDKVPNGIEPMLKDLEEHIISAGLADMVAAAETITTDSEKYVEQLLTLFNRFSKLVKEAFQDDPRFLTARDKAYKAVVNDATIFK
As for B1, the “stoichiometry N” value in the assay with SOCS2^32-198-EloB/C [5] came to 0.83.
